Patent US10456407B2, “Combination therapy for treating cancer” (Epizyme, Inc., priority 2015, dated 2019)

Assays:
SU-DHL10 xenografts = test: SU-DHL10 (EZH2 Y646F) lymphoma xenograft study; assay type: in vivo, mice
SU-DHL6 xenografts = test: SU-DHL6 (EZH2 Y646N) lymphoma xenograft study; assay type: in vivo, mice; conditions: 28 days

SMILES: CCN(c1cc(-c2ccc(CN3CCOCC3)cc2)cc(C(=O)NCc2c(C)cc(C)[nH]c2=O)c1C)C1CCOCC1 [Compound 44]
- tumor growth inhibition / regression (SU-DHL10 xenografts; 28 days): Tumor growth inhibition was observed
- tumor growth delay (SU-DHL10 xenografts; after the 28 day dosing, without further dosing): dose dependent tumor growth delay benefit
- tumor growth inhibition / regression (SU-DHL6 xenografts): significant tumor growth inhibition was not observed
